Drawing on PubChem BioAssay AID1645854 (Buhrlage Lab, Dana-Farber Cancer Institute and Novartis …, 2021), this text covers inhibition for eleven compounds.

Amino acid sequences for entries named in this document (tags omitted).
UniProt Q93009, whole entry, looked up: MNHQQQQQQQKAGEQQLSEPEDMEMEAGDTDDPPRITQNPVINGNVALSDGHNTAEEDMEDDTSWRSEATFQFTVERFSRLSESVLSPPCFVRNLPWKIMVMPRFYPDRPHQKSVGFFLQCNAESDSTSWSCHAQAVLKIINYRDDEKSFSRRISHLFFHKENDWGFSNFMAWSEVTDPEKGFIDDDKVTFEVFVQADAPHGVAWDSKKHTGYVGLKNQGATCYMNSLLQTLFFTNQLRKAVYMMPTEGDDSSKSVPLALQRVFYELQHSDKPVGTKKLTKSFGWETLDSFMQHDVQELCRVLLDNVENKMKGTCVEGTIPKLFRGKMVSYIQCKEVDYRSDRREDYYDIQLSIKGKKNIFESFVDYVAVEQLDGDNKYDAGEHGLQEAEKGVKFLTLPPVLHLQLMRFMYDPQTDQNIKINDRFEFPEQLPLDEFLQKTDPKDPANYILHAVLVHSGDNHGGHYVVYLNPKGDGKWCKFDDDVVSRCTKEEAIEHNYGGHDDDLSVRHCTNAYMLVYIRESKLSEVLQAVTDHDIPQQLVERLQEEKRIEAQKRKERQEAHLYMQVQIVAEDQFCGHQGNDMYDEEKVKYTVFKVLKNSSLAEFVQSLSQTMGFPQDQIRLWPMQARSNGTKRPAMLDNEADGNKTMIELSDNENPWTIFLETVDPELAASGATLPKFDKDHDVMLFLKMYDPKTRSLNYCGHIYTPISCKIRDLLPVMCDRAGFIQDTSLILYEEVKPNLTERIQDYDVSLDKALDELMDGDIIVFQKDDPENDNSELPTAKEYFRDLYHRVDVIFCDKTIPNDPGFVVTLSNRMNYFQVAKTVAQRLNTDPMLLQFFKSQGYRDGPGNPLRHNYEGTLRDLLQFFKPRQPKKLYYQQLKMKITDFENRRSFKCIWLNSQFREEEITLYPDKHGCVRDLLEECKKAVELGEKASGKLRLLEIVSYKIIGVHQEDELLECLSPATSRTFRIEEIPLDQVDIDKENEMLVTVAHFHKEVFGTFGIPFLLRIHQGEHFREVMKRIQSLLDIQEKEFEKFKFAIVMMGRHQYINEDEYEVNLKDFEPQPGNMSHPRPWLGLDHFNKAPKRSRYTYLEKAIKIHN

The list shows a part of the results, in another mix than the full data. Activity calls are given as the source filed them. No stated cut-off is given here; in the data, active means inhibition above about 30%; inactive means the rest.

In the test the target is Ubiquitin carboxyl-terminal hydrolase 7 (Homo sapiens) (UniProt Q93009). Nature of the test: inhibitors of human USP7 deubiquitinase (AID 1645854). The settings on record: purified USP7, Ub-rhodamine cleavage fluorescence; at 20 µM; active compounds read high.
In general, inhibition refers to the drop in the measured response relative to a control, in per cent. For `O=C(COC(=O)C(O)(c1ccccc1)c1ccccc1)NCc1ccc2c(c1)OCO2`, the inhibition was inactive: -9.46%.
To `O=C(c1ccc2c(c1)OCO2)N(Cc1ccco1)C1CCN(CCc2ccccn2)CC1` belongs inactive: -8.37%; to `COc1ccc(CCN2CCC(N(Cc3cccnc3)C(=O)c3cccc(C#N)c3)CC2)cc1`, inactive: -10.9%; to `Cc1[nH]c2c(N(C(=O)Nc3ccccc3)C3CCN(Cc4ccccc4)CC3)cccc2c1C`, inactive: -5.21%.
Take `N#Cc1cccc(C(=O)N(Cc2ccco2)C2CCN(CCc3ccc(Cl)cc3)CC2)c1`: the inhibition is inactive: -13.3%.
As for `COc1ccc(CCN2CCC(N(Cc3ccco3)C(=O)c3ccc(S(C)(=O)=O)cc3)CC2)cc1`, the figure is inactive: -10.1%.
As for `CN1C(=O)C2C(NC(=NCc3ccco3)N2CCc2ccccc2)N(C)C1=O` (stereo unspecified), the inhibition is inactive: -1.92%.
To `N#Cc1cccc(C(=O)N(Cc2ccco2)C2CCN(CCc3ccccn3)CC2)c1` belongs inactive: 0.00896%; to `CS(=O)(=O)c1ccc(C(=O)N(Cc2cccnc2)C2CCN(CCc3ccc(Cl)cc3)CC2)cc1`, inactive: -26.5%; to `CS(=O)(=O)c1ccc(C(=O)N(Cc2ccco2)C2CCN(CCc3ccccn3)CC2)cc1`, inactive: -8.56%.
To `N#Cc1cccc(C(=O)N(Cc2cccnc2)C2CCN(CCc3ccccn3)CC2)c1` belongs inactive: -5.8%.
